# Source: ChEMBL document CHEMBL1136432, “Discovery of potent imidazole and cyanophenyl containing farnesyltransferase inhibitors with improved oral bioavailability” (Bioorg Med Chem Lett, 2003)
# By UniProt entry, the sequences of proteins in these tests, tags left out.
# UniProt P49355, whole entry, looked up: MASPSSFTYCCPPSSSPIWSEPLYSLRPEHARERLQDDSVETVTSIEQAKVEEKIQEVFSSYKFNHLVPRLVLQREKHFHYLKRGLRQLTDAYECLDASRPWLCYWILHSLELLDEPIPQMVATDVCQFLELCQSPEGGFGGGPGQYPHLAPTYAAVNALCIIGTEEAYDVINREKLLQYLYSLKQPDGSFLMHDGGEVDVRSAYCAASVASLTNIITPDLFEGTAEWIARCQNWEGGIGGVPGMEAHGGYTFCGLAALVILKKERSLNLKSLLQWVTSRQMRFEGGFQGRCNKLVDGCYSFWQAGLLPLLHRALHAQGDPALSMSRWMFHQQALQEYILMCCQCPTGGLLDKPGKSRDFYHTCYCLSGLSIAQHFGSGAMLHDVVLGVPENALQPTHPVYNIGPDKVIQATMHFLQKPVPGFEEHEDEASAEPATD
# Molecular target: Protein farnesyltransferase (Bos taurus, UniProt P29702+P49355)
# Assay: Inhibition of transfer of [3H]FPP to biotin K-ras peptide (KKSKTKCVIM) catalyzed by bovine FTase
# Type: protein-complex assay
smiles,measurement,value
Cn1cncc1C(OCc1nc(Cl)c(C#N)cc1-c1cccc(Cl)c1)c1ccc(C#N)cc1 (configuration not stated),IC50,0.9 nM
Cn1cncc1C(OCc1nc(N2CCN(C(=O)OC(C)(C)C)CC2)c(C#N)cc1-c1cccc(Cl)c1)c1ccc(C#N)cc1 (configuration not stated),IC50,0.99 nM
